Data: article PMC2363627 (British Journal of Cancer, 2001)

Assay: Plasma pharmacokinetics of oral paclitaxel 120 mg/m2 combined with 1000 mg oral GF120918 in cancer patients (HPLC, non-compartmental)
Settings: mean SD, n = 6; oral 120 mg/m2 + GF120918 1000 mg
Source text: Furthermore, oral administration may enable development of chronic treatment schedules resulting in sustained plasma concentrations above a pharmacological relevant threshold level. […] PATIENTS AND METHODS Patient population Patients with a histologically confirmed cancer refractory to current therapies were eligible for the study. Previous radiotherapy or chemotherapy other than taxoid therapy was allowed, provided that the last treatment was at least four weeks prior to study entry and any resulting toxicities were resolved. […] Patients were not eligible if they suffered from uncontrolled infec- tious disease, neurologic disease, bowel obstruction or sympto- matic brain metastases. Other exclusion criteria were concomitant use of known P-gp inhibitors and chronic use of H2-receptor antagonists or proton pump inhibitors. The study protocol was approved by the Medical Ethics Committee of the Institute and all patients gave written informed consent. […] The oral and i.v. course were randomized. […] Patient evaluation Pretreatment evaluation included a complete medical history and complete physical examination. […] Responses were evaluated according to the WHO criteria (World Health Organization, 1979). […] The time above the threshold concentrations of 0.05 M and 0.1 M (T > 0.05 M, T > 0.1 M) was determined using linear interpola- tion. […]

SMILES: CC(=O)O[C@H]1C(=O)[C@@]2(C)[C@H]([C@H](OC(=O)c3ccccc3)[C@]3(O)C[C@H](OC(=O)[C@H](O)[C@@H](NC(=O)c4ccccc4)c4ccccc4)C(C)=C1C3(C)C)[C@]1(OC(C)=O)CO[C@@H]1C[C@@H]2O [paclitaxel]
- T > 0.05 M, oral paclitaxel: 13.5 9.3 h
